This assay relates to S. marcescens. In words: Photosensitizer with or without H2O2 or PHMB, rate of kill, S. marcescens. It counts as cell-based. The conditions noted are these: red LED 630 nm, about 10^5 cfu/ml.

Results on one compound are retold here after patent US20110217202A1, “ACTIVE OXYGEN DISINFECTION SYSTEM AND USE THEREOF” (priority 2010, published 2011).

As to `CN(C)c1ccc2nc3ccc(=[N+](C)C)cc-3sc2c1` [MB, Methylene Blue], the “Log reduction in bacterial viability” value is, setting by setting: (10 μg/mL with 0.0005% PHMB, about 15 minutes) 5-6 Log; (10 μg/mL with 0.003% H2O2, one hour) 5-6 Log.
